Structures are written as SMILES. The entries are a selection whose mix differs from that of the whole data set. Calls of active or inactive are those of the source.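 Rule for the calls: active = activation above the mean of all tested compounds plus 3 SD (cut at about 21% in these data); inactive = the rest.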

Sequences of proteins named here, by UniProt entry; tags and fusion partners are left off.
UniProt P42574, whole entry D9A/D28A/D175A: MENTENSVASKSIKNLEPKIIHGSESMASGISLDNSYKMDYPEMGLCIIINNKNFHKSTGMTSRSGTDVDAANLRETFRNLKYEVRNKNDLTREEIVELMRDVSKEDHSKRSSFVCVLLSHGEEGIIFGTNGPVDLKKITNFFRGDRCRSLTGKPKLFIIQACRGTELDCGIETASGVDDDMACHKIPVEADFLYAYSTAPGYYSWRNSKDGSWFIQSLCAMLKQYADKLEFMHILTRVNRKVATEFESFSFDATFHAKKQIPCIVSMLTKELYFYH

The assay concerns the target Caspase-3 (Homo sapiens) (UniProt P42574). As to the kind of experiment: activators of human procaspase-3 D3A mutant, primary screen, biochemical, absorbance, PC-3 D3A mutant, single concentration (AID 463141).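 Note: 0% = DMSO alone and 100% = DMSO wells spiked with extra 5 µM PC-3 D3A.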 The following applies: recombinant procaspase-3 D3A, Ac-DEVD-pNA absorbance 405 nm; at 8.5 µM; stronger effect = higher value.
For `CP(=O)(Nc1ccc(Cl)cc1)Oc1ccc(F)cc1` (configuration not stated), the activation was inactive: -2.49%.

Take `COc1ccccc1OP(C)(=O)Nc1ccccc1Br` (configuration not stated): the activation was inactive: -4.39%. On to `CC(C)(C)c1ccc(OP(C)(=O)O)cc1`, for which the activation was inactive: -4.66%.

Turning to `CP(=O)(OC12CC3CC(CC(C3)C1)C2)OC12CC3CC(CC(C3)C1)C2`, the activation is inactive: 6.17%. In the case of `CCOC(=O)c1ccc(NP(C)(=O)Oc2ccc(Cl)cc2)cc1` (configuration not stated), the activation was inactive: -12.1%. The result for `Nc1ccc2c(ccc3cccnc32)n1.O=[N+]([O-])c1cc([N+](=O)[O-])c(O)c([N+](=O)[O-])c1` reads inactive: -6.24%; that for `COc1ccc(OP(C)(=O)Nc2ccccc2Br)cc1` (configuration not stated), inactive: 9.15%; that for `COc1ccccc1OP(C)(=O)Nc1ccc(C)c(C)c1` (configuration not stated), inactive: -2.31%. Consider `Cc1cc(C)cc(OP(C)(=O)Nc2cccc(C(F)(F)F)c2)c1` (configuration not stated), for which the activation was inactive: -10.6%. The result for `CP(=O)(Nc1ccc(Cl)cc1Cl)Oc1ccccc1` (configuration not stated) reads inactive: 6%; that for `CP(=O)(OCCOc1ccccc1)OCCOc1ccccc1`, inactive: 13.2%; that for `Cc1nc2ccc3ccccc3c2o1.O=[N+]([O-])c1cc([N+](=O)[O-])c(O)c([N+](=O)[O-])c1`, inactive: 6.16%. The result for `CN(C)CCOC(=O)C(O)(c1ccccc1)C1CCCC1` (configuration not stated) reads inactive: 4.44%; that for `COc1ccc(OP(C)(=O)Nc2ccccn2)cc1` (configuration not stated), inactive: 14.2%; that for `COc1ccccc1OP(C)(=O)Nc1ccc(Br)cc1` (configuration not stated), inactive: 8.6%. The result for `CCc1ccc(OP(C)(=O)O)cc1` reads inactive: -9.76%.

On to `COc1ccccc1OP(C)(=O)Nc1ccc(C)cc1C` (configuration not stated), for which the activation is inactive: -0.7%. Take `CP(=O)(Nc1ccccn1)Oc1ccccc1` (configuration not stated): the activation is inactive: 0.9%. On to `Cc1c(NP(C)(=O)Oc2ccc(C(C)C)cc2)c(=O)n(-c2ccccc2)n1C` (configuration not stated), for which the activation was inactive: 0.97%. The figure for `O=[N+]([O-])c1cc([N+](=O)[O-])c(Nc2ccccn2)c([N+](=O)[O-])c1` is inactive: -7.68%; for `CCN(CC)CCCOC(=O)C(O)(c1ccccc1)c1ccccc1` it is inactive: 10.8%; for `Cc1cccc(C)c1OP(C)(N)=O` (configuration not stated) it is inactive: -2.48%. The figure for `CC(C)(C)c1ccc(OP(C)(=O)Nc2ccc(SC(F)(F)F)cc2)cc1` (configuration not stated) is inactive: -5.85%; for `O=[N+]([O-])c1ccc2c(c1)C=Nc1ccccc1O2` it is inactive: 1.47%; for `O=[N+]([O-])c1cc([N+](=O)[O-])c(Nc2cccnc2)c([N+](=O)[O-])c1` it is inactive: -1.66%. With `COc1ccc(OP(C)(=O)Nc2cccc(F)c2)cc1` (configuration not stated), the activation was inactive: -6.63%. The result for `COc1ccccc1OP(C)(=O)Nc1cc(Cl)ccc1C` (configuration not stated) reads inactive: 3.81%. The result for `Cc1cc(C)cc(OP(C)(N)=O)c1` (configuration not stated) reads inactive: -3.66%; that for `CCOC(=O)c1ccc(NP(C)(=O)Oc2ccccc2)cc1` (configuration not stated), inactive: 14.2%. The figure for `Cc1ccc(NP(C)(=O)Oc2ccccc2)c(C)c1` (configuration not stated) is inactive: 6.91%; for `COc1ccccc1OP(C)(=O)Nc1ccc(C)cc1` (configuration not stated) it is inactive: -2.99%. `COc1ccccc1OP(C)(=O)Nc1ccccc1` (configuration not stated): the activation was inactive: 0.37%. The result for `CP(=O)(Nc1ccccc1Br)Oc1ccccc1` (configuration not stated) reads inactive: 11.6%; that for `CP(=S)(Nn1cnnc1)Oc1ccccc1` (configuration not stated), inactive: -24.2%. For the compound `Cc1cc(C)cc(OP(C)(=O)Nc2ccc(SC(F)(F)F)cc2)c1` (configuration not stated), the activation is inactive: 1.14%.

`CP(=O)(NC(=O)Nc1ccccc1)Oc1ccccc1` (configuration not stated): the activation was inactive: 2.95%. As for `CCc1ccc(OP(C)(=O)N2CCN(c3ccc([N+](=O)[O-])cc3)CC2)cc1` (configuration not stated), the activation was inactive: -7.32%. The result for `CP(=O)(Oc1ccccc1)OC(c1ccccc1)C(F)(F)F` (configuration not stated) reads inactive: 2%; that for `Cc1cccc(C)c1OP(C)(=O)Nc1ccc(SC(F)(F)F)cc1` (configuration not stated), inactive: -10.8%; that for `CP(=O)(Nc1ccc(SC(F)(F)F)cc1)Oc1ccc(Cl)cc1` (configuration not stated), inactive: -5.05%. The figure for `CP(=O)(Nc1ccccn1)Oc1ccc(Cl)cc1` (configuration not stated) is inactive: 1.44%.

As for `CCOP(C)(=S)SCC(=O)NC(C)C(=O)O` (configuration not stated), the activation was inactive: -0.36%.

In the case of `CCOC(=O)c1ccc(NP(C)(=O)Oc2ccc(OC)cc2)cc1` (configuration not stated), the activation is inactive: 5.55%.

As to `O=[N+]([O-])c1cc([N+](=O)[O-])c(O)c([N+](=O)[O-])c1.c1ccc(Oc2ccncc2)cc1`, the activation was inactive: -10.9%.

Turning to `O=[N+]([O-])c1cc([N+](=O)[O-])c(-n2nnc3ccccc32)c([N+](=O)[O-])c1`, the activation was inactive: -0.6%.

For the compound `Cc1nc2ccc3ccccc3c2s1.O=[N+]([O-])c1cc([N+](=O)[O-])c(O)c([N+](=O)[O-])c1`, the activation is inactive: -14.5%. The figure for `O=[N+]([O-])c1cc([N+](=O)[O-])c(-c2cnn(-c3ccccc3)c2)c([N+](=O)[O-])c1` is inactive: 3.37%.

Consider `CCOC(=O)C(CC)C1=NC(C)(C)Cc2ccccc21.O=[N+]([O-])c1cc([N+](=O)[O-])c(O)c([N+](=O)[O-])c1` (configuration not stated), for which the activation was inactive: 2.38%. Consider `CC1=C2N=C(C=C3N=C(C(C)=C4[N-][C@@](C)([C@@H]5N=C1[C@](C)(CCC(=O)NC[C@@H](C)OP(=O)([O-])O[C@H]1[C@@H](O)[C@@H](n6cnc7cc(C)c(C)cc76)O[C@@H]1CO)[C@H]5CC(N)=O)[C@@](C)(CC(N)=O)[C@@H]4CCC(N)=O)[C@@](C)(CC(N)=O)[C@@H]3CCC(N)=O)C(C)(C)[C@@H]2CCC(N)=O.[C-]#N.[Co+3]`, for which the activation was inactive: -12%. The result for `O=[N+]([O-])c1cc([N+](=O)[O-])c(Nc2nnnn2CCO)c([N+](=O)[O-])c1` reads inactive: -5.95%; that for `CCCOc1ccc(NP(C)(=O)Oc2ccc(Cl)cc2)cc1` (configuration not stated), inactive: 3.77%; that for `CP(=O)(Nc1ccc(SC(F)(F)F)cc1)Oc1ccccc1` (configuration not stated), inactive: -0.64%.

As to `COc1ccccc1OP(C)(=O)Nc1c(C)cccc1C` (configuration not stated), the activation was inactive: 4.3%. The figure for `CN1CCCCC1COC(=O)C1(O)c2ccccc2CCc2ccccc21` (configuration not stated) is inactive: 8.4%; for `O=C(O)c1cccc(Nc2c([N+](=O)[O-])cc([N+](=O)[O-])cc2[N+](=O)[O-])c1` it is inactive: 4.13%. The figure for `CC1=NCCc2c1[nH]c1ccccc21.O=[N+]([O-])c1cc([N+](=O)[O-])c(O)c([N+](=O)[O-])c1` is inactive: 3.54%. The figure for `Cc1cc(C)cc(OP(C)(=O)Nc2ccc(C)cc2C)c1` (configuration not stated) is inactive: -4.03%; for `CCOC(=O)c1ccc(NP(C)(=O)Oc2cc(C)cc(C)c2)cc1` (configuration not stated) it is inactive: 2.77%; for `COc1ccccc1OP(C)(=O)Nc1cccc(Br)c1` (configuration not stated) it is inactive: 4.93%. For the compound `Cc1cc(C)cc(OP(C)(=O)Nc2ccccn2)c1` (configuration not stated), the activation was inactive: 6.05%. The figure for `CP(=O)(Nc1cccc(Br)c1)Oc1ccccc1` (configuration not stated) is inactive: 8.71%; for `Cc1ccc(C)c(NP(C)(=O)Oc2ccccc2)c1` (configuration not stated) it is inactive: -8.01%.
